# Measured values as given in patent US12295973B2, “Luteinizing hormone receptor binding agents and luteinizing hormone agonists to identify, expand, ablate and modify stem cells” (Fred Hutchinson Cancer Center, priority 2017, dated 2025).
# Assays:
# purified LSK cells = experiment: In vitro effect of LH in CAFC and CFC assays, mouse LSK cells co-cultured with MS-5; format: cell-based; conditions: 0.5 or 5 μg/ml of LH
# Experimental: Colony-Forming Cell (CFC) and Cobblestone Areas Forming Cell (CAFC): Assays were performed as previously described with a minor modifications^50. For CFC assays, 5×10^4 BM nucleated cells (BMNC) per 1 mL of Iscove's modified Dulbecco's medium (GIBCO) supplemented with 1.2% methylcellulose (Dow Chemicals, MI), 30% FBS, 2 mM glutamine, 0.1 mM monothiolglycerol, 0.1 mg/ml hemin (Sigma Inc, MO), 0.05 mg gentamicin, 20 ng/mL murine c-kit ligand (Amgen Inc, CA), 6 units/ml human Epogen (Amgen Inc. CA), and 20 ng/mL murine IL-3 (Pepro Tech Inc., NJ) were plated in triplicates in 35-mm non-tissue culture dishes (Corning-Costar, NY). When there were fewer BMNC, all the BM cells were equally plated to Petri dishes in triplicates. Colonies were scored after 10 days of incubation at 37° C. and 5% CO2. […] After 3 weeks of co-culture, CAFCs were scored as phase-dark hematopoietic clones of at least 5 cells beneath the stromal layer using an inverted microscope.
# Mouse cells: Two thousand purified LSK cells and MS-5 cells were co-cultured in T-12.5 flasks with or without 0.5 or 5 μg/ml of LH in 4 replicates. […] After three weeks, CAFC were scored. […]
# [1] = system: human HSC1 (CD34+CD38−CD45RA−CD90+); experiment: In vitro expansion of human HSC1 in stroma-free culture system; format: cell-based; conditions: fresh LH every day
# Experimental: Human cells: Human umbilical cord blood (UCB) CD34+ cells were harvested, enriched and cultured as previously described^52. Briefly before enrichment of NHP CD34+ cells, red cells were lysed in ammonium chloride lysis buffer. For enrichment of human CD34+ cells, microbead conjugated anti-CD34 antibody (Miltenyi Biotech) was used. Enriched and sort-purified CD34+ cells were cultured in StemSpan (Stemcell Technologies) supplemented with 100 U/ml penicillin streptomycin (Gibco by Life Technologies) and SCF, TPO and FLT3-L (all Peprotech) (100 ng/ml each) with 50% exchange of culture medium on day 4. Fresh LH was added every day for the total duration of in vitro culture. For CFC assays 400 sorted cells were seeded into 1 ml MethoCult H4435 (StemCell Technologies). Hematopoietic colonies were scored after 12-14 days. Arising colonies were identified as colony forming unit—(CFU-) granulocyte (CFU-G), macrophage (CFU-M), granulocyte-macrophage (CFU-GM) and burst forming unit-erythrocyte (BFU-E). Colonies consisting of erythroid and myeloid cells were scored as CFU-MIX.
# [2] = cited from earlier work
# mice exposed to L-TBI = experiment: Mouse survival after lethal total body irradiation (L-TBI, 840cGy); format: in vivo; conditions: hCG given to LHRH-Ant treated mice that had been given L-TBI 1 day prior
# Text: Description. Inhibition of sex steroids, which can be achieved in a reversible fashion pharmacologically, is a well-described strategy to promote lymphopoiesis in the BM and thymus^8,7,14,15. Although the most common method of sex steroid ablation clinically has been to use LHRH-agonists, it was described that an LHRH-Antagonist represents a more rational approach to promote immediate ablation of sex steroids for immune regeneration as it is far more rapid and abrogates the initial surge in sex steroids that LHRH-Agonist cause^16. Taken together with the impact of sex steroid inhibition on HSC function and the rapid regenerative effects of LHRH-Ant, it was hypothesized that LHRH-Ant could represent a rational non-cellular medical countermeasure for mitigating radiation injury and promoting hematopoietic regeneration when administered after hematopoietic insult. To test this hypothesis, a lethal TBI (L-TBI) dose of 840cGy that mediated lethality in more than 90% of mice (FIG. 1A) was used. […] Mouse lethality was a result of bone marrow failure, since transplant of BM Lin-Sca1^+tkit^+ (LSK) cells 3 days after L-TBI completely rescued all mice (FIG. 1B). […] It was then tested if LHRH-Ant could mediate even greater mouse survival when administered multiple times.
# Methods. […] To assess mouse survival after radiation, mice were monitored for up to 60 days after TBI. […]
Substance,colony formation in cobblestone area-forming cell (CAFC) assay (purified LSK cells),colony formation in colony-forming cell (CFC) assay (purified LSK cells),expansion of human HSC1 in vitro [1],half-life [2],survival after radiation injury in LHRH-Ant treated mice (mice exposed to L-TBI)
luteinizing hormone [LH],significantly enhanced colony formation,significantly enhanced colony formation,significantly expand human HSC1,1 to 2 h,–
human chorionic gonadotropin [hCG],–,–,–,several hours,abrogated the beneficial effects of LHRH-Ant on survival
